For experiment [1], the target named is cation-independent mannose-6-phosphate receptor (CIMPR). The experiment in a line: cell-based or functional assay.
The target is the same in experiment [2]. The experiment in a line: CIMPR affinity chromatography, elution with free M6P gradient, fractions read by GAA activity.
Experiment [3] has the same target. The experiment in a line: M6P receptor (CIMPR) plate binding assay.
Experiment [4] has the same target. Nature of the experiment: CIMPR affinity chromatography of different production batches.

In experiment [1], “Lumizyme® (alglucosidase alfa, conventional rhGAA; Genzyme) (from UniProt P10253 57-952)” displayed a concentration that saturates cellular receptors (fibroblast uptake) of 250 nM; an uptake efficiency constant (Kuptake), internalisation into normal and Pompe fibroblasts of 56 nM. In experiment [2], this substance had a percent of rhGAA bound to the CIMPR column (M6P-containing, eluted with M6P) of 22% and a percent of rhGAA that did not bind to the CIMPR of 78%.
One may read the Kd as a measure of binding affinity in units of concentration. Lower therefore signals tighter binding. Substance “ATB200 rhGAA (recombinant human acid α-glucosidase expressed in CHO cell line GA-ATB-200) (from UniProt P10253 57-952) (enzyme)” gave a Kd in experiment [3] of 2 to 4 nM. The CIMPR receptor binding (percent of rhGAA bound) in experiment [4] stood at 70%. In experiment [1], this substance displayed a concentration that saturates cellular receptors (fibroblast uptake) of 20 nM.
In experiment [2], “Myozyme® (alglucosidase alfa, conventional rhGAA; Genzyme) (from UniProt P10253 57-952)” yielded a percent of rhGAA bound to the CIMPR column (M6P-containing, eluted with M6P) of 27% and a percent of rhGAA that did not bind to the CIMPR of 73%.

These data come from US20250381254A1, “Augmented Acid Alpha-Glucosidase For The Treatment Of Pompe Disease” (Amicus Therapeutics, Inc., priority 2015, published 2025).
